Results from US20020115688A1, “Screen for glutamate reuptake inhibitors, stimulators, and modulators” (priority 2000, published 2002).

Test system: T1, glutamate transporters (GLAST and GLT1)
T1 construct: Bmax; other: rat brain membrane homogenates; other: 20 nM [3H]-4MG, 15 minutes at 4° C; KD; association t½
Assay: [3H]-4MG binding to rat brain membrane homogenates
Settings: FIG. 1
Procedure: Rat brain tissue, either freshly dissected or stored frozed at −20° C. is homogenized in HEPES buffer containing Na^+(5 mM HEPES, 96 mM NaCl, 1.8 mM CaCl2, 1 mM MgCl2 (pH 7.5 at 25° C.)), and membranes are washed twice in the same buffer using standard methods for subcellular fractionation and the preparation of brain membranes. Brain tissue is weighed and homogenized in 15 ml of assay buffer using a Polytron tissue homogenizer (setting 4, 10-15 seconds). […] The homogenate is centrifuged again (as above) and the pellet re-suspended in 20 to 25 volumes of buffer. Membrane homogenates make up 20% of final assay volume. Binding assays are also performed in the above buffer.
The range of concentrations of the receptor compound (for example, 10 nM-1 mM) is varied dependent on whether all or only a trace of the receptor compound is labeled. […] Binding is determined by any technique suitable for the label used. […]
Forebrain tissue from female Sprague Dawley rats was homogenised in HEPES buffer containing Na^+, and membranes were washed twice in the same buffer. […] Binding was determined by scintillation spectrometry. […] Data were analyzed using computer-assisted curve fitting. Values are expressed as mean of at least triplicate determinations and multiple experiments. […]

SMILES: C[C@H](C[C@H](N)C(=O)O)C(=O)O [4MG, (2S,4R)-4-methyl glutamic acid]
- association t½: approximately 20 min
